Measurements as given in publication PMC9083324, “Identifying Acute Cardiac Hazard in Early Drug Discovery Using a Calcium Transient High-Throughput Assay in Human-Induced Pluripotent Stem Cell-Derived Cardiomyocytes” (Frontiers in Physiology, 2022).

Legend:
hERG [1] = conditions: 6 µM vs fCmax
hERG [2] = conditions: ref Titier et al., 2005; cited from earlier work

Cc1cc2c(s1)Nc1ccccc1N=C2N1CCN(C)CC1 [Olanzapine]
hERG-inhibiting concentration as multiple of fCmax (hERG [1]): 90 fold | concentration found to significantly inhibit hERG (hERG [2]): 6 µM
